The list shows a part of the results, in another mix than the full data. The source made the active and inactive calls.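 How the source made its calls: active means inhibition above a set limit, near 3 SD of compounds lacking own fluorescence (cut at about 54% in these data); inactive means the rest.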

For this assay, the system named is beta-arrestin 1 C-terminal peptide binding to AP2 beta2-adaptin appendage (human). Put plainly: blockers of arrestin peptide association with AP2 adaptin – biochemical, GPCR trafficking, flow cytometry, primary screen (AID 504490).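 Further: plate controls were DMSO wells for no effect and 5 µM unlabelled arrestin peptide for full effect.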 Particulars: FITC-arrestin peptide / GST-AP2 beads, at 10 µM, active compounds read high, AP2 beta2 appendage carries R879A mutation. On the technique in general: A flow cytometer gives signals particle by particle.
Broadly, the inhibition is the drop in the measured response relative to a control, in per cent. For the molecule `Cc1ccccc1OP(=O)(Nc1ccccn1)Oc1ccccc1C`, the inhibition is inactive: 8.52%. With `CC(=O)NC(SC(=S)N(CC(C)C)CC(C)C)C(Cl)(Cl)Cl` (stereo not drawn), the inhibition was inactive: -16%. Under `COC(=O)c1cc2c(s1)N=C(c1ccccc1)N(C)P2(=O)N1CCOCC1` (stereo not drawn) stands active: 76.9%. Under `CCC(=O)N1C2C3N(C(=O)CC)C1C1N(C(=O)CC)C(C(N1C(=O)CC)N3C(=O)CC)N2C(=O)CC` stands inactive: 5.1%; under `O=C(OC1CN2CCC1CC2)c1ccccc1` (stereo not drawn), inactive: -0.6%; under `O=P1(N(CCCl)CCCl)OCCC2CCCCN21` (stereo not drawn), inactive: 2.13%. Under `O=C(NC1CCS(=O)(=O)C1)NP(=S)(Oc1ccccc1)Oc1ccccc1` (stereo not drawn) stands inactive: -14.5%. As for `CCNC(=S)/N=C(\N)N[N+](=O)[O-]`, the inhibition was inactive: 20.5%. Under `Cc1ccc(NP(=O)(Oc2cccc(C)c2)Oc2cccc(C)c2)nc1` stands inactive: 13.5%; under `c1ccc(-c2nn[nH]n2)c(-c2nn[nH]n2)c1`, inactive: 15.8%. Consider `CC(=O)Nc1ccc(Oc2c([N+](=O)[O-])cc([N+](=O)[O-])cc2[N+](=O)[O-])cc1`, for which the inhibition was inactive: -0.77%. Under `CC(=O)Nc1ccc([As](=O)(O)O)c(O)c1` stands inactive: 6.6%. Consider `COC(=O)C1(C)COP(=O)(NCc2ccccc2)OC1` (stereo not drawn), for which the inhibition was inactive: -2.07%. For the molecule `CC(=O)c1ccc(N2CC2c2ccncc2)cc1` (stereo not drawn), the inhibition was inactive: 12.2%. On to `N#C/C(=C\c1ccc(N(CCBr)CCBr)cc1)C(N)=O`, for which the inhibition is inactive: -0.84%. Under `C[C@H]1OP(=O)(Oc2ccccc2)C[C@@H]2O[C@@H]21` (stereo partly drawn) stands inactive: -2.97%; under `C[C@@H]1C=CCP(=O)(Oc2ccccc2)O1` (stereo partly drawn), inactive: -7.11%. Take `Cc1ccccc1CN(C)C(=O)COC(=O)C(O)(c1ccccc1)c1ccccc1`: the inhibition is inactive: 0.28%.

Turning to `CCc1cc(O)c([N+](=O)[O-])c(C)c1[N+](=O)[O-]`, the inhibition is inactive: 2.52%. For the molecule `CC(C)(C)C(=O)NC(Sc1ccccc1)C(Cl)(Cl)Cl` (stereo not drawn), the inhibition was inactive: -19.6%.

As for `CCOc1ccc(C2=NCC(CBr)S2)cc1` (stereo not drawn), the inhibition was inactive: 10.8%. Under `O=P1(Nc2nc3ccc(Cl)cc3s2)COc2ccccc2O1` (stereo not drawn) stands inactive: -6.56%; under `Nc1cc(N)c2nonc2c1[N+](=O)[O-]`, inactive: -11.4%. For the molecule `CC(C)CC(=O)NC(Sc1ccc(Cl)cc1)C(Cl)(Cl)Cl` (stereo not drawn), the inhibition was inactive: 25.9%. Under `O=C(NC(Sc1ccncn1)C(Cl)(Cl)Cl)c1ccccc1` (stereo not drawn) stands inactive: 14.2%; under `Oc1ccccc1CNc1ccccn1`, inactive: 17%; under `Cc1ccc(OP(=O)(Nc2nccs2)Oc2ccc(C)cc2)cc1`, inactive: 14.6%. `COc1ccccc1OP(=O)(Nc1ccc(C)cn1)Oc1ccccc1OC`: the inhibition was inactive: 32.5%.

These data come from PubChem BioAssay AID504490 (NMMLSC, 2011).
